In patent US12704502B2, “Methods and systems for determining metabolic poise and capacity of living cells” (AGILENT TECHNOLOGIES, INC., priority 2021, dated 2026):

Tested on: Human Peripheral Blood NK cells
Assay: Bioenergetic profile of unstimulated or IL-2 stimulated and expanded NK cells (Seahorse XF)
Assay type: cell-based
Settings: IL-2 1000 U/mL, 14 days of expansion; FIGS. 13A-13E
Description: The bioenergetic profile of unstimulated human peripheral blood NK cells or NK cells from the same donor stimulated with IL-2 and expanded in cell culture medium during 14 days was also determined. As described in Example 2, bioenergetic poise was calculated as the proportion of ATP generated by glycolysis to oxidative phosphorylation, while the reserve capacity or the bioenergetic capacity was calculated as the level of increase in glycolytic and mitochondrial activity that the cell can affect in response to an increase in energy demand.
The total bioenergetic capacity of unstimulated or expanded human peripheral blood NK cells (Stem Cell Technologies, Cat. No. 70036) was measured as described herein. NK cells were thawed and resuspended at 1×10^6 cells/mL and incubated overnight in RPMI supplemented with 2 mM glutamine, 10% FBS 37C in a 5% CO2 incubator or stimulated with IL-2 (1000 U/mL) and cultured during 14 days adjusting every 3 days cell density to 1×10^6 cells/mL. […] The basal ATP production rate, the compensatory glycolytic capacity, the total bioenergetic capacity, the mitochondrial bioenergetic capacity, and the spare respiratory capacity were calculated. […] (FIGS. 13A-13E)

IL-2: interleukin used to stimulate and expand NK cells (1000 U/mL)
basal ATP production and bioenergetic capacity versus unstimulated NK cells: higher basal ATP production and bioenergetic capacity
